# Target: T1, rat pituitary receptors (Rattus norvegicus, UniProt P30969)
# T1 construct: from tissue; host or cells: rat pituitary
# T1 sequence (P30969 1-327): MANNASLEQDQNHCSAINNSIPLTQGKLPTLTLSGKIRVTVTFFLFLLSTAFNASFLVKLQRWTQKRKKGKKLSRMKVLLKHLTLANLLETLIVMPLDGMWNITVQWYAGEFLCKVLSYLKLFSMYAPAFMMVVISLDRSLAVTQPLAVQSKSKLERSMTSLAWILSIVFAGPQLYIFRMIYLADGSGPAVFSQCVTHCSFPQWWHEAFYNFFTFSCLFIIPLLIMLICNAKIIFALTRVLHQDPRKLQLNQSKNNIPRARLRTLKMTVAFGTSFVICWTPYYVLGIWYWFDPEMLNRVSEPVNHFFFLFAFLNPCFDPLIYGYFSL
# Assay: Receptor binding potency, rat pituitary receptors
smiles,measurement,value
CC(C)C[C@H](NC(=O)[C@@H](CCCCN)NC(=O)[C@H](Cc1ccc(O)cc1)NC(=O)[C@H](CO)NC(=O)[C@H](Cc1c[nH]c2ccccc12)NC(=O)[C@H](Cc1cnc[nH]1)NC(=O)[C@@H]1CCC(=O)N1)C(=O)N[C@@H](CCCNC(=N)N)C(=O)N1CCC[C@H]1C(=O)NCC(N)=O [[D-Lys^6]LH-RH],IC50,2.26 nM

# Reference: patent US6184374A, “Targeted cytotoxic anthracycline analogs” (priority 1998, dated 2001)
